Test results reported in the NIST ThermoML archive (doi:10.1021/acs.jced.9b00011).
± gives the expanded uncertainty stated by the source.

Tests used:
[1] = Crystal; DSC
[2] = Molar enthalpy of transition or fusion; conditions: Crystal; DSC

For COc1cc([N+](=O)[O-])c(OC)cc1Cl [1-chloro-2,5-dimethoxy-4-nitrobenzene], the Triple point temperature [1] was 414.87 ± 1.3 K and the “Molar enthalpy of transition or fusion” value [2] was 6.74 ± 0.813 kcal/mol.
